Compound activity: PubChem, Broad Institute
Shown are actives, neighbours in structure and some others; about 2.2% of the full set was active somewhere.
PDI inh: blocks human protein disulfide isomerase activity | PDI insulin aggregation turbidity, A650, 90 min | inhibition, % at 10 µM | 0.052% of 350,000 active;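 active means mean inhibition across replicates of 30% or more, whatever share of single replicates reach that level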
Yeast UUG start-1: yeast start codon fidelity modulation; AID 602363; activity score, % at 18.7 µM; S. cerevisiae UUG-firefly luciferase reporter, luminescence/redox ratio; 0.13% of 350,000 active;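 active means replicate mean at a twofold rise or more, about +100% in these data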;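 further: firefly luciferase made from a UUG start codon reports start codon fidelity; reporter light over untreated wells divided by growth signal over untreated wells; some hits fall short of that in this replicate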
SIRT5 inh: blocks human SIRT5 desuccinylation of peptide | inhibition, % at 15 µM | Purified SirT5, succinyl-peptide AMC, trypsin-coupled fluorescence | 1.1% of 330,000 active; in the data active means inhibition above about 15%
S100A4 MyoIIA: blocks human S100A4 binding to myosin IIA peptide | P26447 | S100A4/TAMRA-MyoIIA peptide fluorescence polarization | inhibition, % at 10.7 µM | 0.14% of 360,000 active;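 active means mean inhibition of at least 70% across replicates, with every replicate also reaching that level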
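Assay system: human S100A4 monomer with TAMRA-labelled myosin IIA peptide / Buffer or medium: Calcium-containing HEPES buffer, pH 7.2 / Reagent: TAMRA-labelled myosin IIA heavy-chain peptide probe, 5 nM / Compound: one dose per compound / Timing: polarization read 5 min after assay mix addition, stable 5–60 min / Benchmarks: neutral control DMSO, positive control TFP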
ERp5 block: inhibitors of human ERp5; Q15084; ERp5 insulin aggregation, absorbance 650 nm, 90 min; inhibition, % at 9.99 µM; 0.05% of 350,000 active;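 active means mean replicate inhibition above about 25%, with every replicate also reaching it, limit read from the data, passing the limit was not always enough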
FGF22 binding: binders of recombinant human FGF22 by thermal shift; Q9HCT0; SYPRO orange fluorescence; percent of sucrose octasulfate shift, DMSO zero; activity (Tm shift, normalised), % at 9.99 µM; 1.5% of 340,000 active;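 active means mean Tm shift, scaled 0 neutral to 100 positive control, at about 1.3% or above, every replicate too, limit read from the data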
Yeast UUG start-2: alters UUG start codon use in yeast; shares compounds with Yeast UUG start-1; S. cerevisiae UUG-start firefly luciferase, luminescence, 4 h; 100% means double the DMSO signal; activation, % at 38 µM; 540 tested, under 10 active; AID 652061;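 active means signal increase whose fitted curve reaches an absolute level of 40 at a concentration under 10 µM; inactive means activity opposite to the expected increase, or the rest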
* = called active by the depositor; i = inactive; · = not tested or not shown; ! = a repeat was not active.

Letters: A = PDI inh; B = Yeast UUG start-1; C = SIRT5 inh; D = S100A4 MyoIIA; E = ERp5 block; F = FGF22 binding; G = Yeast UUG start-2
compound: C[C@H](CO)N1C[C@H](C)[C@@H](CN(C)C(=O)c2ccccc2F)Oc2ncc(-c3cccnc3)cc2C1=O
  A = ·; B = -9.1; C = 2.8; D = -19.7; E = -10.4; F = -0.1; G = ·
compound: COc1ccc(-c2cnc3c(c2)C(=O)N([C@@H](C)CO)C[C@@H](C)[C@H](CN(C)Cc2cccnc2)O3)cc1
  A = ·; B = 144.8*; C = 5.7; D = 1.7; E = -1.8; F = 0.3; G = i
compound: C[C@H](CO)N1C[C@H](C)[C@H](CN(C)Cc2ccncc2)Oc2ncc(-c3cccc(C#N)c3)cc2C1=O
  A = ·; B = 109.8*; C = -2.2; D = 24.0; E = -2.5; F = -0.1; G = i
compound: C[C@H](CO)N1C[C@H](C)[C@@H](CN(C)Cc2ccncc2)Oc2ncc(-c3cccc(C#N)c3)cc2C1=O
  A = ·; B = 0.4; C = ·; D = 22.8; E = -3.1; F = -0.1; G = ·
compound: N#C[C@H]1[C@@H](c2ccc(-c3cccc(F)c3)cc2)[C@@H](CO)N1C(=O)NC1CCCCC1
  A = ·; B = ·; C = 8.1; D = -8.6; E = -3.7; F = ·; G = ·
compound: C[C@H]1CN([C@@H](C)CO)S(=O)(=O)c2ccc(C#CC3CC3)cc2O[C@@H]1CN(C)C
  A = ·; B = -3.5; C = -3.8; D = -0.4; E = -1.5; F = -0.2; G = ·
compound: CO[C@H]1CN(C)C(=O)c2ccc(NC(=O)C3CCOCC3)cc2OC[C@@H](C)N(CC2CC2)C[C@H]1C
  A = ·; B = -5.9; C = -0.4; D = 5.0; E = 1.4; F = 0.3; G = ·
compound: C[C@H](CO)N1C[C@H](C)[C@@H](CN(C)Cc2cncnc2)Oc2ncc(/C=C/c3ccccc3)cc2C1=O
  A = ·; B = 249.8*; C = -3.5; D = 48.2; E = -4.0; F = -0.5; G = i
compound: COc1ccccc1-c1cnc2c(c1)C(=O)N([C@H](C)CO)C[C@H](C)[C@H](CN(C)C(=O)c1cccnc1)O2
  A = ·; B = -5.1; C = 0.3; D = 2.1; E = 2.1; F = 0.1; G = ·
compound: COc1ccccc1-c1cnc2c(c1)C(=O)N([C@@H](C)CO)C[C@@H](C)[C@H](CN(C)C(=O)c1cccnc1)O2
  A = -1.8; B = 199.6*!; C = -14.2; D = 23.4; E = 0.0; F = 0.0; G = i
compound: C[C@@H]1CN([C@@H](C)CO)C(=O)Cc2cc(NC(=O)Nc3ccc4c(c3)OCO4)ccc2O[C@H]1CN(C)Cc1ccc(-c2ccccc2)cc1
  A = ·; B = -3.6; C = 0.5; D = -10.4; E = -3.2; F = 0.0; G = ·
compound: CCc1[nH]c(C)c(C(C)=O)c1C
  A = -3.1; B = 415.5*; C = ·; D = ·; E = ·; F = ·; G = 4.1
compound: C[C@@H]1CN([C@H](C)CO)C(=O)c2cc(-c3ccccc3)cnc2O[C@@H]1CN(C)Cc1cccnc1
  A = ·; B = -7.2; C = 0.1; D = 4.4; E = 3.8; F = -0.1; G = ·
compound: COC(=O)c1c2oc(c1C(=O)OC)C(=O)N[C@H](Cc1ccccc1)Cn1cc(nn1)[C@@H](Cc1ccccc1)NC(=O)N[C@@H](CO)CC2
  A = ·; B = 4.6; C = 1.8; D = 24.1; E = -0.1; F = 0.0; G = ·
compound: COC(=O)c1c2oc(c1C(=O)OC)C(=O)N[C@@H](Cc1ccccc1)Cn1cc(nn1)CNC(=O)[C@@H](Cc1ccccc1)NC(=O)N[C@@H](CO)CC2
  A = ·; B = 115.5*; C = -3.9; D = 17.5; E = 4.6; F = -0.1; G = i
compound: Nc1ccc(O)c2c1C(=O)c1ccccc1C2=O
  A = ·; B = -10.7; C = -1.1; D = 16.6; E = -7.6; F = 0.0; G = ·
compound: O=C1c2ccccc2C(=O)c2c(Nc3ccc(CCO)cc3)ccc(O)c21
  A = -3.0; B = active; C = -0.3; D = 6.8; E = 2.5; F = -0.4; G = -24.3
compound: C[C@@H]1CCCCO[C@@H](CN(C)C(=O)Cc2ccccc2)[C@H](C)CN([C@@H](C)CO)C(=O)c2cc(NC(=O)CCCCCC(=O)Nc3ccccc3N)ccc2O1
  A = ·; B = 3.6; C = 4.9; D = 2.9; E = -2.1; F = -0.1; G = ·
compound: O=C(CN1CCOCC1)N1CCN(c2ccc([N+](=O)[O-])cc2)CC1
  A = -3.0; B = ·; C = 1.4; D = -6.8; E = 9.4; F = 0.3; G = -5.8
compound: O=C(CN1CCN(c2ccc([N+](=O)[O-])cc2Cl)CC1)N1CCOCC1
  A = 4.1; B = 7.3; C = 8.2; D = -1.7; E = 6.5; F = -0.1; G = ·

Among those listed so far, 3 contain a cyano group:
Letters: A = PDI inh; B = Yeast UUG start-1; C = SIRT5 inh; D = S100A4 MyoIIA; E = ERp5 block; F = FGF22 binding; G = Yeast UUG start-2
compound: C[C@H](CO)N1C[C@H](C)[C@H](CN(C)Cc2ccncc2)Oc2ncc(-c3cccc(C#N)c3)cc2C1=O
  A = ·; B = 109.8*; C = -2.2; D = 24.0; E = -2.5; F = -0.1; G = i
compound: C[C@H](CO)N1C[C@H](C)[C@@H](CN(C)Cc2ccncc2)Oc2ncc(-c3cccc(C#N)c3)cc2C1=O
  A = ·; B = 0.4; C = ·; D = 22.8; E = -3.1; F = -0.1; G = ·
compound: N#C[C@H]1[C@@H](c2ccc(-c3cccc(F)c3)cc2)[C@@H](CO)N1C(=O)NC1CCCCC1
  A = ·; B = ·; C = 8.1; D = -8.6; E = -3.7; F = ·; G = ·

Later entries:
Letters: A = PDI inh; B = Yeast UUG start-1; C = SIRT5 inh; D = S100A4 MyoIIA; E = ERp5 block; F = FGF22 binding; G = Yeast UUG start-2
compound: COc1ccc(C(C)=O)cc1CSc1nc(C)cc(C)n1
  A = 0.4; B = ·; C = -2.6; D = -0.3; E = 2.7; F = -0.1; G = ·
compound: CCOc1ccc(C(C)=O)cc1CSc1nc(C)cc(C)n1
  A = -2.7; B = 212.6*; C = -1.9; D = 2.8; E = 1.7; F = 0.0; G = 4.2
compound: C[C@H]1CN([C@@H](C)CO)S(=O)(=O)c2ccc(C#Cc3ccncc3)cc2O[C@H]1CN(C)C(=O)C1CCOCC1
  A = ·; B = 2.1; C = -0.5; D = -22.5; E = 1.0; F = -0.1; G = ·
compound: CNC[C@H]1Oc2cc(C#Cc3ccncc3)ccc2S(=O)(=O)N([C@H](C)CO)C[C@H]1C
  A = ·; B = 128.8*; C = -3.8; D = -1.2; E = 2.3; F = 0.0; G = i
compound: CNC[C@@H]1Oc2cc(C#Cc3ccncc3)ccc2S(=O)(=O)N([C@@H](C)CO)C[C@@H]1C
  A = ·; B = -5.0; C = 3.2; D = -7.4; E = 1.0; F = 0.0; G = ·
compound: C[C@H](CO)N1C[C@H](C)[C@H](CN(C)C(=O)C2CCOCC2)Oc2cc(C#Cc3ccncc3)ccc2S1(=O)=O
  A = ·; B = 191.0*; C = 0.5; D = -4.8; E = -0.7; F = -0.2; G = i
compound: CCOC(=O)C(C)N1C(=O)S/C(=C\c2ccc(-c3ccccc3C(=O)O)o2)C1=O (stereo not drawn)
  A = 1.2; B = 40.5; C = 7.5; D = -15.0; E = -3.7; F = -0.5; G = ·
compound: Cc1ccc(C)c(N2C(=N)S/C(=C\c3ccc(-c4ccccc4C(=O)O)o3)C2=O)c1
  A = -6.9; B = 113.1*; C = 4.4; D = -4.2; E = -5.0; F = ·; G = -3.7
compound: O=C(C[C@H]1CC[C@@H]2[C@H](COC[C@H](O)CN2C(=O)c2cccnc2)O1)NCc1ccccc1
  A = ·; B = ·; C = -4.6; D = 33.8; E = 3.6; F = -0.2; G = ·
compound: Cc1ccc(C(=O)NCCSC(C)(C)C)cc1
  A = -2.3; B = 321.4*; C = ·; D = ·; E = ·; F = ·; G = -32.1
compound: CC(C)(C)SCCNC(=O)c1ccccc1
  A = -1.8; B = -11.9; C = ·; D = ·; E = ·; F = ·; G = ·
compound: COc1ccccc1CCNC(=O)c1ccc(NC(=O)CC2SC(N3CCCCC3)=NC2=O)cc1 (stereo not drawn)
  A = -2.6; B = 116.9*; C = -1.3; D = -24.5; E = -0.1; F = 0.0; G = 7.1
compound: CC1(C)C(=O)OC(c2ccccc2)C(C)(C)C1=O (stereo not drawn)
  A = 3.2; B = -11.3; C = -2.3; D = -0.9; E = 1.4; F = -0.2; G = ·
compound: CCC1=C(OC(=O)c2ccccc2)C(C)(C)C(c2ccccc2)OC1=O (stereo not drawn)
  A = 0.2; B = 105.4*; C = ·; D = ·; E = ·; F = ·; G = 9.1
compound: COc1ccc(S(=O)(=O)N2CCN(CCCOc3ccc(F)cc3)CC2)cc1OC
  A = -7.2; B = 303.0*; C = -3.4; D = 9.5; E = 1.2; F = -0.1; G = 7.3
compound: C[C@@H]1CN([C@H](C)CO)S(=O)(=O)c2ccc(C#CC3CC3)cc2O[C@@H]1CN(C)C(=O)c1ccccc1
  A = ·; B = 6.6; C = -2.7; D = -10.4; E = -3.1; F = -0.2; G = ·
compound: O=C1c2ccccc2C(=O)c2c(NCCCN(CCO)CCO)cccc21
  A = -6.6; B = ·; C = -0.9; D = -38.8; E = 0.7; F = 0.1; G = ·
compound: CCN(CCCNc1cc2c(c(N)c1S(=O)(=O)O)C(=O)c1ccccc1C2=O)c1ccccc1
  A = -4.6; B = 134.7*; C = ·; D = 13.2; E = 5.5; F = 0.2; G = -20.5
compound: NC(=O)C[N+]1(CC#CC(O)(c2ccccc2)c2ccccc2)CCCC1
  A = -8.4; B = ·; C = -1.6; D = -2.6; E = 0.8; F = 4.0*; G = -3.7
compound: Cc1ccc(-n2c(C)nn(CC#N)c2=O)cc1
  A = -16.0; B = 345.6*; C = 0.6; D = 0.8; E = 1.0; F = -0.1; G = -1.3
